Measurements taken from patent US20190008870A1 (published 2019).

Test system: HMG CoA reductase
Assay: HMG CoA reductase expression in HepG2 cells (Western blotting)
Type: cell-based
Settings: 24 hours, CTL 100

With CCC(C)(C)C(=O)O[C@H]1C[C@@H](C)C=C2C=C[C@H](C)[C@H](CC[C@@H]3C[C@@H](O)CC(=O)O3)[C@H]21 [Simva, Simvastatin, reference compound] the “HMGR (%)” value (10^−6 M) was 225% and the “HMGR (%)” value (10^−7 M) was 220%.
